Measurements reported in ChEMBL document CHEMBL1139143, “Synthesis and structure-activity relationships of N-substituted spiropiperidines as nociceptin receptor ligands” (Bioorg Med Chem Lett, 2007).

By UniProt entry, the sequences of proteins in these tests, tags left out. Where a name states a change or a piece, a line headed by the entry shows the natural chain unless it says otherwise.
UniProt P41146: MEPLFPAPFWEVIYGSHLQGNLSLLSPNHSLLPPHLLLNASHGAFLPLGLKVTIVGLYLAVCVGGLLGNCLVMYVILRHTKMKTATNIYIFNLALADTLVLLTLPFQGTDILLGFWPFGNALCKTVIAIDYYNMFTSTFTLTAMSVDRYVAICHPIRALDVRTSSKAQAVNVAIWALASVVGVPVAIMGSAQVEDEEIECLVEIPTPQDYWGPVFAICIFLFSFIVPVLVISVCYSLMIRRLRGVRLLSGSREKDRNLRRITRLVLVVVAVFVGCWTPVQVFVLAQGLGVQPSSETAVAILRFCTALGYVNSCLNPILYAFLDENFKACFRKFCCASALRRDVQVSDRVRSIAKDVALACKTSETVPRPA

Legend:
[1] = molecular target: Nociceptin receptor (Homo sapiens) (UniProt P41146); test: Agonist activity at human nociceptin receptor expressed in CHO cell membrane assessed as stimulation of [35S]GTP-gamma-S binding at 10 uM
[2] = molecular target: Nociceptin receptor (Homo sapiens) (UniProt P41146); test: Agonist activity at human nociceptin receptor expressed in CHO cell membrane assessed as stimulation of [35S]GTP-gamma-S binding at 0.1 uM
[3] = species: Homo sapiens; test: Selectivity for human nociceptin receptor over human mu opioid receptor
[4] = species: Homo sapiens; test: Selectivity for human nociceptin receptor over human kappa opioid receptor

| SMILES | Activity [1] | Ratio Ki [4] | further results |
| --- | --- | --- | --- |
| O=C1NCN(c2ccccc2)C12CCN(C(c1ccccc1)c1ccccc1Cl)CC2 (stereo not drawn) | 87% | – | – |
| CC1(C)CCC(N2CCC3(CC2)C(=O)NCN3c2ccccc2)c2cc(Cl)c(Cl)cc21 (stereo not drawn) | – | – | Activity [2]: 104% |
| O=C1NCN(c2ccccc2)C12CCN(C1CCCc3ccccc31)CC2 (stereo not drawn) | – | 46 | Ratio Ki [3]: 16 |
| O=C1NCN(c2ccccc2)C12CCN(C(c1ccccc1F)c1ccccc1F)CC2 | 104% | – | – |
| O=C1NCN(c2ccccc2)C12CCN(C(c1ccccc1)c1ccccc1F)CC2 (stereo not drawn) | 87% | – | – |
| O=C1NCN(c2ccccc2)C12CCN(CC1CCCCC1)CC2 | – | 8.5 | – |
| O=C1NCN(c2ccccc2)C12CCN(Cc1ccccc1)CC2 | – | 18 | – |
